Assay results from ChEMBL document CHEMBL4673259, “Discovery of isoquinolinone and naphthyridinone-based inhibitors of poly(ADP-ribose) polymerase-1 (PARP1) as anticancer agents: Structure activity relationship and preclinical characterization” (Bioorg Med Chem, 2020).

Organism: Homo sapiens
Assay: Selectivity index, ratio of IC50 for inhibition of N-terminal GST-tagged human PARP2 (2 to 583 residues) expressed in baculovirus infected Sf9 cells to IC50 for inhibition of N-terminal GST-tagged human full length PARP1 (2 to 1041 residues) expressed in baculovirus infected Sf9 cells

With N#Cc1ccc(N2CCN([C@H]3C=C(c4cc5ncccc5c(=O)[nH]4)CC3)CC2)cc1 the Ratio IC50 was 7.4.
